This note sets out measurements from article PMC11182288, “Effects of Netarsudil-Family Rho Kinase Inhibitors on Human Trabecular Meshwork Cell Contractility and Actin Remodeling Using a Bioengineered ECM Hydrogel” (Frontiers in Ophthalmology, 2022).

By UniProt entry, the sequences of proteins in these tests, tags left out. Where a name states a change or a piece, a line headed by the entry shows the natural chain unless it says otherwise.
UniProt O75116: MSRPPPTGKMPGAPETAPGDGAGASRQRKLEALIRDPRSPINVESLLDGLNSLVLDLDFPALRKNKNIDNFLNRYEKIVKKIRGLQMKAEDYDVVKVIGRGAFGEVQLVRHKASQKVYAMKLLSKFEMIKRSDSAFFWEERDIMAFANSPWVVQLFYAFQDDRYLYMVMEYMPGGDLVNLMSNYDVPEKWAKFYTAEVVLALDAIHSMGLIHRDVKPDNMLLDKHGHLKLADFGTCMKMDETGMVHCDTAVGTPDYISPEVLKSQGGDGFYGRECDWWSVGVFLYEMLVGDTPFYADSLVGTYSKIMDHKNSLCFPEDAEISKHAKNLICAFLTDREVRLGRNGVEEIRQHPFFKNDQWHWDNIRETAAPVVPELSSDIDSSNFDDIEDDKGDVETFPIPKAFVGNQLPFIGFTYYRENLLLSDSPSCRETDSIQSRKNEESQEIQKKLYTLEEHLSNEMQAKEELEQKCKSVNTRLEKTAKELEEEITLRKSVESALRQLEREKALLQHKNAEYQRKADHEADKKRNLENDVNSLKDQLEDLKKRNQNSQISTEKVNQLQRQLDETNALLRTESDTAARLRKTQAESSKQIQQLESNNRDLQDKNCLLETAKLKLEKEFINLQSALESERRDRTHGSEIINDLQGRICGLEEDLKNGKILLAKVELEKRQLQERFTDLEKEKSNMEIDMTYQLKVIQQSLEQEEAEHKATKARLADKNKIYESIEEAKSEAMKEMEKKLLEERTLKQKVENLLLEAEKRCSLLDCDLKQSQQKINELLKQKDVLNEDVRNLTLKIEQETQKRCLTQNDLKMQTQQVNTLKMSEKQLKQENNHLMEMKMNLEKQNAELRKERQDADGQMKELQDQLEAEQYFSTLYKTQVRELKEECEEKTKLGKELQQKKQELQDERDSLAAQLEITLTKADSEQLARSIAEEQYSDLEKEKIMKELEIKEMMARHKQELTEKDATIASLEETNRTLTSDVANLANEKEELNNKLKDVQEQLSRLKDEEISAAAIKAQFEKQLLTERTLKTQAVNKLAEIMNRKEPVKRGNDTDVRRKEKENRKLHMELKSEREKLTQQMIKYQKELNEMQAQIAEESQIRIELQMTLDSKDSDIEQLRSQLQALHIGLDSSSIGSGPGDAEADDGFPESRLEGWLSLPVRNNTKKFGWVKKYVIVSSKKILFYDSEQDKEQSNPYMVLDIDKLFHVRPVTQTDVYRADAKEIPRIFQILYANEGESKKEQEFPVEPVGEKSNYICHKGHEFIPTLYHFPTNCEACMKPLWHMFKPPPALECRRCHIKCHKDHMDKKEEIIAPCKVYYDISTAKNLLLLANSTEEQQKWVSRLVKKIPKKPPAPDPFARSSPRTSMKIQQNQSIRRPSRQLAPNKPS

Experiment [1] concerns F-actin stress fibers in hydrogel-encapsulated HTM cells. Put plainly: HTM hydrogel immunocytochemistry, F-actin stress fibers. Format: cell-based, human. Conditions: 240 h. Here is the method:
Alternatively, 30 µl droplets of the HTM cell-laden hydrogel precursor solution were pipetted onto Surfasil-coated (Fisher Scientific) 18 × 18-mm square glass coverslips followed by placing a regular 12-mm round glass coverslip onto the hydrogels to facilitate even spreading of the polymer solution. HTM hydrogels were crosslinked by exposure to UV light (OmniCure S1500 UV Spot Curing System; Excelitas Technologies, Mississauga, Ontario, Canada) at 320-500 nm, 2.2 W/cm^2 for 5 s. The HTM hydrogel-adhered coverslips were removed with fine-tipped tweezers and placed hydrogel-side facing up in PDMS-coated 24-well culture plates ( Supplementary Figure 2C ).
Nuclei were counterstained with 4′,6′-diamidino-2-phenylindole (DAPI; Abcam). Coverslips were mounted with ProLong™ Gold Antifade (Invitrogen) on Superfrost™ microscope slides (Fisher Scientific), and fluorescent images were acquired with a Zeiss LSM 780 confocal microscope (Zeiss, Germany). […] Individual z-stacks consisted of 7 slices with the z-step interval set to […]. Fluorescence signal intensity of F-actin and αSMA were determined using Z-project maximum intensity projections in Fiji (NIH) with image background subtraction.

For another experiment, the target named is T1, ROCK2 (Homo sapiens, UniProt O75116).
T1 construct: purchased Invitrogen; Thermo Fisher Scientific
Put plainly: ROCK2 protein kinase assay (Kinase-Glo Luminescent Kinase Assay). The experiment is classed as biochemical. As to the method:
Dose response analyses were conducted to establish IC50 values, which were converted to Ki values using the Cheng-Prusoff Equation Ki = IC50/(1 + ([ATP]/Km ATP).

Experiment [2] has as its system HTM cell-encapsulated ECM hydrogels. Put plainly: HTM hydrogel contraction analysis after TGFβ2 induction and ROCKi rescue. Conditions: 240 h. The experiment is classed as cell-based, human. As to the method:
HTM cells (1.0 × 10^6 cells/ml) were thoroughly mixed with MA-COL (3.6 mg/ml), SH-HA (0.5 mg/ml, 0.025% (w/v) photoinitiator) and SH-ELP (2.5 mg/ml) on ice ( Supplementary Figure 2A ), followed by pipetting 10 μl droplets of the HTM cell-laden hydrogel precursor solution onto polydimethylsiloxane-coated (PDMS; Sylgard 184; Dow Corning) 24-well culture plates ( Supplementary Figure 2B ), according to our established protocols ([32]–[34]). Alternatively, 30 µl droplets of the HTM cell-laden hydrogel precursor solution were pipetted onto Surfasil-coated (Fisher Scientific) 18 × 18-mm square glass coverslips followed by placing a regular 12-mm round glass coverslip onto the hydrogels to facilitate even spreading of the polymer solution. HTM hydrogels were crosslinked by exposure to UV light (OmniCure S1500 UV Spot Curing System; Excelitas Technologies, Mississauga, Ontario, Canada) at 320-500 nm, 2.2 W/cm^2 for 5 s. […]
Longitudinal brightfield images of HTM hydrogels subjected to the different treatments were acquired at 0 d and 10 d with an Eclipse Ti microscope (Nikon Instruments, Melville, NY, USA). Construct area was measured using Fiji software (National Institutes of Health (NIH), Bethesda, MD, USA) and normalized to 0 d followed by normalization to controls.

As for `NC[C@@H](C(=O)Nc1ccc2cnccc2c1)c1ccc(COC(=O)c2ccccc2)cc1` [Compound A], the “Relative F-actin signal fold-change vs. controls” value in experiment [1] is on record as ~ 1.7 fold-change. The compound also displayed a Ki on ROCK2 of 1.2 ± 0.3 nM. For the same compound, the “Relative hydrogel size vs. controls” value in experiment [2] is ~ 78%.
